Tests used:
Assay type in all cases: biochemical
[1] = target: human plasmin (Homo sapiens, UniProt P00747); conditions: 30 minute incubation; read-out: Plasmin IC50 (Table 3C)
Description: (§1) The ability of compounds of the present invention to act as a selective inhibitor of thrombin catalytic activity was assessed by determining the concentration of compound which inhibited the activity of this enzyme by 50%, (IC50), and comparing this value to that determined for all or some of the following related serine proteases: recombinant tissue plasminogen activator (rt-PA), plasmin, activated protein C, chymotrypsin, factor Xa and trypsin.
(§2) The buffer used for all assays was HBSA (10 mM HEPES, pH 7.5, 150 mM sodium chloride, 0.1% bovine serum albumin).
(§3) The assay for IC50 determinations was conducted by combining in appropriate wells of a Corning microtiter plate, 50 microliters of HBSA, 50 microliters of the test compound at a specified concentration (covering a broad concentration range) diluted in HBSA (or HBSA alone for VO (uninhibited velocity) measurement), and 50 microliters of the enzyme diluted in HBSA. Following a 30 minute incubation at ambient temperature, 50 microliters of the substrate at the concentrations specified below were added to the wells, yielding a final total volume of 200 microliters. The initial velocity of chromogenic substrate hydrolysis was measured by the change in absorbance at 405 nm using a Thermo Max® Kinetic Microplate Reader over a 5 minute period in which less than 5% of the added substrate was utilized. The concentration of added inhibitor which caused a 50% decrease in the initial rate of hydrolysis was defined as the IC50 value.
Plasmin catalytic activity was determined using the chromogenic substrate, S-2366 [L-pyroglutomyl-L-prolyl-L-arginine-p-nitroaniline hydrochloride], which was obtained from Pharmacia-Upjohn. The substrate was made up in deionized water followed by dilution in HBSA prior to the assay in which the final concentration was 300 micromolar (about 2.5-times Km). Purified human plasmin was obtained from Enzyme Research Laboratories, Inc. The enzyme was diluted into HBSA prior to assay in which the final concentration was […].

Amino acid sequences for entries named in this document (tags omitted). Residues count along the entry.
UniProt P00747, 97-580: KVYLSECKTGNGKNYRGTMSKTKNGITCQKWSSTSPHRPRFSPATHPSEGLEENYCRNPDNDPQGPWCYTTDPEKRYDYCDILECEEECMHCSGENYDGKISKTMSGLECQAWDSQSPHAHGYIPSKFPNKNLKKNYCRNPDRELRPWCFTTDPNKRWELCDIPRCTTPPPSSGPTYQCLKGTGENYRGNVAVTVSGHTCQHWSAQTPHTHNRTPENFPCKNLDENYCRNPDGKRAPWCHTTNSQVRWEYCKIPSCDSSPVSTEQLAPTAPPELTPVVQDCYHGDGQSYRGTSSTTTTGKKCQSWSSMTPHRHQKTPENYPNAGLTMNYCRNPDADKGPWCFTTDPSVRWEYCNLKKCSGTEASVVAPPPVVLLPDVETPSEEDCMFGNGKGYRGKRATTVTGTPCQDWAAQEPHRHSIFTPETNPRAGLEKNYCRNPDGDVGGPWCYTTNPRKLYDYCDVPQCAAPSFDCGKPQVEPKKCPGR
UniProt P00747, 581-810: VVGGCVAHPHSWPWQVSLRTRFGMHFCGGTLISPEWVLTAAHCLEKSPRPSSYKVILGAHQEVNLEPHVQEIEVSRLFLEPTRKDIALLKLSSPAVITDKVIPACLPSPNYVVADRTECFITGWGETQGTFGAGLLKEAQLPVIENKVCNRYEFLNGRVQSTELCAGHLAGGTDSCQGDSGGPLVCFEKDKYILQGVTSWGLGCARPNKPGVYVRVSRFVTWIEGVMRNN
UniProt P04070, 43-197: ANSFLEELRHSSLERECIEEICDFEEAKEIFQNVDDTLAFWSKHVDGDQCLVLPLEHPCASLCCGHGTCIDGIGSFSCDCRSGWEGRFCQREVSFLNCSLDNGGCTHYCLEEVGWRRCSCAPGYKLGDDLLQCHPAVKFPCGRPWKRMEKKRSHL
UniProt P04070, 212-461: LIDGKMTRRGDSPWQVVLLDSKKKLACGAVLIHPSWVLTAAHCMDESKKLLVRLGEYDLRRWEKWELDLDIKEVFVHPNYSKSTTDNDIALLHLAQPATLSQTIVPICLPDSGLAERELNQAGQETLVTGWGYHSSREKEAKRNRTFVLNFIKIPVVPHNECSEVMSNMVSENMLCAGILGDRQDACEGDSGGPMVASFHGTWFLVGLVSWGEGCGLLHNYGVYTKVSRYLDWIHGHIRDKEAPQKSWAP
UniProt P00750, 36-562: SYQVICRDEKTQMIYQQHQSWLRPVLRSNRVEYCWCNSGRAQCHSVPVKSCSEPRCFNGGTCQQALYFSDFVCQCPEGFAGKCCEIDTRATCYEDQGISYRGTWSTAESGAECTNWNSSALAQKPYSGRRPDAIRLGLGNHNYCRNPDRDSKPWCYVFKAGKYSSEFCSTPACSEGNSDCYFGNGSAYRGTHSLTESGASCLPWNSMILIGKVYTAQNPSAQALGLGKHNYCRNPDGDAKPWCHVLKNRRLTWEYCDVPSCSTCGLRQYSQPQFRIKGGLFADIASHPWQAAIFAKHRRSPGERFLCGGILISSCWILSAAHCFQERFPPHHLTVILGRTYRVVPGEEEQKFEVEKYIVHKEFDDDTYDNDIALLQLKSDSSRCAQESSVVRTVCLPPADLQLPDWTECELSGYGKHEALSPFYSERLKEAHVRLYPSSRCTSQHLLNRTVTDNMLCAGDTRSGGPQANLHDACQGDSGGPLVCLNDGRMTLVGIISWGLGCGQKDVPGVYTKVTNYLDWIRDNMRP

[2] = target: T1, human aPC (Homo sapiens, UniProt P04070); conditions: 30 minute incubation; read-out: aPC IC50 (Table 3C)
T1 construct: purchased Hematologic Technologies, Inc
Description: as §2
Following a 30 minute incubation at ambient temperature, 50 microliters of the substrate at the concentrations specified below were added to the wells, yielding a final total volume of 200 microliters. The initial velocity of chromogenic substrate hydrolysis was measured by the change in absorbance at 405 nm using a Thermo Max® Kinetic Microplate Reader over a 5 minute period in which less than 5% of the added substrate was utilized.
Activated Protein C (aPC) Assay
aPC catalytic activity was determined using the chromogenic substrate, Pefachrome PC (delta-carbobenzloxy-D-lysine-L-prolyl-L-arginine-p-nitroaniline dihydrochloride), obtained from Pentapharm Ltd.). […] Purified human aPC was obtained from Hematologic Technologies, Inc. The enzyme was diluted into HBSA prior to assay in which the final concentration was 1.0 nM.

[3] = target: T2, Human rt-PA (Activase) (Homo sapiens, UniProt P00750); conditions: 30 minute incubation; read-out: rtPA IC50 (Table 3C)
T2 construct: purchased Genentech Inc
Description: as §1, §2, §3
Recombinant Tissue Plasminogen Activator (rt-PA) Assay
rt-PA catalytic activity was determined using the substrate, Pefachrome t-PA (CH3SO2-D-hexahydrotyrosine-glycyl-L-arginine-p-nitroaniline, obtained from Pentapharm Ltd.). The substrate was made up in deionized water followed by dilution in HBSA prior to the assay in which the final concentration was 500 micromolar (about 3-times Km). Human rt-PA (Activase®) was obtained from Genentech Inc. The enzyme was reconstituted in deionized water and diluted into HBSA prior to the assay in which the final concentration was 1.0 nM.

Row | Substance | IC50 [1] [nM] | IC50 [2] [nM] | IC50 [3] [nM]
1 | [2,3-methylenedioxy-benzene)sulfonylamino-2-oxo-1,2-dihydropyridyl]acetyl-L-argininal [Compound 152D] | > 2500 |  | 
2 | [5-(1,3-benzodioxole)sulfonylalmino-6-methyl-2-oxo-1,2-dihydro-pyridyl]acetyl-L-argininal [Compound 153D] | > 2500 | > 2500 | > 2500
3 | [5-(1,3-benzodioxole)sulfonylamino-2-oxo-1,2-dihydropyridyl]acetyl-L-argininal [Compound 152A] | > 2500 | > 2500 | > 2500
4 | [5-(1,4-benzodioxan)sulfonylamino-6-methyl-2-oxo-1,2-dihydro-pyridyl]acetyl-L-argininal [Compound 153B] | > 2500 | > 2500 | > 2500
5 | [5-(2,3-dihydrobenzofuran)sulfonylamino-6-methyl-2-oxo-1,2-dihydro-pyridyl]acetyl-L-argininal [Compound 153C] | > 2500 |  | 
6 | [5-(2,3-dioxaspirocyclohexyl)-sulfonylamino-2-oxo-1,2-dihydropyridyl]acetyl-L-argininal [Compound 152C] | > 2500 |  | 

From patent US6342504B1, “Aromatic heterocyclic derivatives as enzyme inhibitors” (priority 1994, dated 2002)
